The target of assay [1] is human D2 dopamine receptor (Homo sapiens, UniProt P14416). Briefly: Radioligand binding, human D2 receptor ([3H]-spiperone). As to conditions: read-out: Ki(nM) D3/5HT2A/D2: D2; third value of the cell; membranes of transfected HEK-293 EBNA cells, 0.7 nM [3H]-spiperone.
Assay [2] has as its target human 5-HT2A serotonin receptor (Homo sapiens, UniProt P28223). The assay can be described thus: Radioligand binding, human 5-HT2A receptor ([3H]-ketanserin). As to conditions: read-out: Ki(nM) D3/5HT2A/D2: 5HT2A; second value of the cell; membranes of transfected HEK-293 EBNA cells, 1.1 nM [3H]-ketanserin.
Assay [3] addresses human D3 dopamine receptor (Homo sapiens, UniProt P35462). Briefly: Radioligand binding, human D3 receptor ([3H]-spiperone). The following applies: read-out: Ki(nM) D3/5HT2A/D2: D3; first value of the cell; membranes of transfected HEK-293 EBNA cells, 0.5 nM [3H]-spiperone.

Protein sequences, listed by entry. Tags and fused reporters are not part of them.
UniProt P14416, whole entry: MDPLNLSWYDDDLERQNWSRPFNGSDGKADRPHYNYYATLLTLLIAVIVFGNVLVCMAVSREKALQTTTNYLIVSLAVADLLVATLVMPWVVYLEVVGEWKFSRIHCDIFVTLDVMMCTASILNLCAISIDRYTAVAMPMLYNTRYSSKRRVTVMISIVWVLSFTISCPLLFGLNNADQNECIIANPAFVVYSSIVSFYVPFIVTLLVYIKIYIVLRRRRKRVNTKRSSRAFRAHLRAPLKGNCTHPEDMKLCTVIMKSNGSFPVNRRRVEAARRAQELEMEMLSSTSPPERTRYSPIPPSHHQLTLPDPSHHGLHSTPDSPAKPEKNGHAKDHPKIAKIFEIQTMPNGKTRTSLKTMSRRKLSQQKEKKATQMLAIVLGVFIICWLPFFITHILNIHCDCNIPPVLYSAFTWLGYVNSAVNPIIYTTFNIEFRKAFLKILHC
UniProt P28223, whole entry: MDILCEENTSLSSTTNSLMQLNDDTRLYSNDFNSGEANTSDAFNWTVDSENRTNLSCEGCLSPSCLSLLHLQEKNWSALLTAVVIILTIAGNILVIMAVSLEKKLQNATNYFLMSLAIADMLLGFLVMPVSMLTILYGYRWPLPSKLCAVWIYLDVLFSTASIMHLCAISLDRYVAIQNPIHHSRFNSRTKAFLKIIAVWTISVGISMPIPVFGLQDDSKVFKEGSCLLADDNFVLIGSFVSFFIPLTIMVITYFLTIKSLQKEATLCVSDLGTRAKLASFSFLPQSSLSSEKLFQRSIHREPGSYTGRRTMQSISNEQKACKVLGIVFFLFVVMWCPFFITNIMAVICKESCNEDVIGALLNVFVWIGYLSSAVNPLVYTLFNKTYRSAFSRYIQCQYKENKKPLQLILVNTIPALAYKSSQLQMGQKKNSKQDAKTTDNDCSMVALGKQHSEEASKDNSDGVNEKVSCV
UniProt P35462, whole entry: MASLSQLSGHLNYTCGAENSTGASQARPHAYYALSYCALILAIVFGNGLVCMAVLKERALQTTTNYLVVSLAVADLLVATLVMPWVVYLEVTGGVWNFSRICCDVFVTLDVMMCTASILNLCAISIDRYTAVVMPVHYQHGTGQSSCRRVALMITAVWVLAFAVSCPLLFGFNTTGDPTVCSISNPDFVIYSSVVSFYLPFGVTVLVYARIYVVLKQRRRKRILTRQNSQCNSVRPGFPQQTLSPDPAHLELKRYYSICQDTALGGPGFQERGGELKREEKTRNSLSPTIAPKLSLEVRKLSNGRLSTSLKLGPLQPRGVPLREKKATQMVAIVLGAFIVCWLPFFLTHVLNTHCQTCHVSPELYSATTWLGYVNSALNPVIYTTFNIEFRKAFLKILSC

For the molecule `O=C(N[C@H]1CC[C@H](CCN2CCC(C(=O)c3ccc(F)c(F)c3)CC2)CC1)C1CCOCC1` (relative stereo), the Ki was found to be 1450 nM in assay [1], 38 nM in assay [2] and 71 nM in assay [3].

Values taken from US8039490B2, “Benzoyl-piperidine derivatives as dual modulators of the 5-HT2A and D3 receptors” (Hoffmann-La Roche Inc., priority 2006, dated 2011).
